## Ab-14 light chain CDR variants: yeast mating affinities

Target: peptide PDVDLGDISGINAS, taken from heptad repeat 2 (HR2) of SARS-CoV-2 spike.

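The starting antibody came from a phage panning campaign against this peptide. Designed CDR sequences, proposed from the first random library and measured here. Their group label is 14L_GP_Gibbs (GP: Gaussian process model; Gibbs: Gibbs sampling; a sequence that several methods proposed may carry one label only). The assay is AlphaSeq: two haploid yeast populations carry antibody and antigen on their surface. After mating in shaken culture at 30 °C for 16 h, diploids were selected and their barcode pairs sequenced. The ratio of observed to expected reads was calibrated, replicate by replicate, on BCL2-family standards whose Kd was known from biolayer interferometry. Each pool was mated in six replicate cultures.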

Parent scFv Ab-14: VH joined to VL by the linker GGGGSGGGGSGGGGS. Changes lie in the light chain CDRs alone.
VH: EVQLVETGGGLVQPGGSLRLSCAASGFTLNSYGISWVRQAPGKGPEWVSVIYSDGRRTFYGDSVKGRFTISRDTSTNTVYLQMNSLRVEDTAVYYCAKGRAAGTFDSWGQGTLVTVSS
VL: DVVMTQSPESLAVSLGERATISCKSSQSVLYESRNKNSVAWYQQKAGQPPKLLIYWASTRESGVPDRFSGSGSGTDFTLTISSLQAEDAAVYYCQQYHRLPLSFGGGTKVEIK

Positions count from residue 1 of the parent VL; S25F puts F in place of S.
Numbers give log10(Kd / nM), so 0 is 1 nM and 3 is 1 µM. Smaller is tighter.

changes | log10 Kd, replicates | control signals
S25F Q27G V29D K36S W56H A57G Q96D | 0.11 / -0.19 / 0.08 / -0.28 / 0.08 / 0.12 | 0 of 18
S25V Q27Y V29M L30D W56E T59D E61L Q96D | 1.26 / 1.40 / 1.17 / 1.65 / 1.26 / 1.83 | 2 of 18 (3.15)
S25V S28G V29M L30W N35M W56N T59Q S103Q | -0.16 / -0.42 / -0.20 / -0.46 / -0.25 / -0.27 | 0 of 18
S25L Q27W V29N K36A W56N T59Q E61C | 0.28 / 0.25 / 0.11 / 0.19 / 0.23 / 0.25 | 1 of 18 (2.58)
K24H S25L L30W Y31Q W56E T59Q S62R | -0.05 / -0.05 / -0.29 / -0.52 / -0.31 / 0.00 | 0 of 18
S25V Q27I S28E L30W Y31G E32G S33D W56D | 0.12 / -0.03 / -0.13 / -0.12 / -0.30 / 0.10 | 0 of 18
S28M V29D K36G W56D E61M S62D | 0.02 / -0.11 / -0.30 / -0.27 / -0.14 / 0.20 | 1 of 18 (2.85)
V29D K36G S38N W56N A57G E61M S62D | 0.60 / 0.33 / 0.01 / 0.33 / 0.34 / 0.28 | 1 of 18 (2.35)
S25V S28E V29M K36A W56N T59Q S62E | 0.06 / -0.01 / -0.05 / -0.15 / 0.04 / 0.12 | 0 of 18
S25L L30W S33E W56N T59K | -0.02 / 0.26 / 0.04 / -0.30 / -0.51 / 0.17 | 0 of 18
S25V Q27T V29Q L30E S33D W56H S62E | -0.12 / -0.07 / -0.39 / -0.26 / -0.43 / -0.32 | 0 of 18
S25V V29Q N35M N37Q W56H T59Q | 0.50 / 0.23 / 0.07 / 0.29 / 0.30 / 0.20 | 1 of 18 (2.62)
S25L S28A V29D L30W K36C W56Q S62Q | 1.45 / 1.56 / 0.79 / 2.13 / 0.82 / 2.49 | 1 of 18 (2.64)
K24H S25I L30E Y31G R34S W56S S62Q | 0.11 / -0.44 / -0.22 / -0.16 / -0.07 / -0.03 | 0 of 18
S25L S26Q V29M K36V W56D T59K | -0.27 / -0.53 / -0.48 / -0.62 / -0.53 / -0.37 | 3 of 18 (2.57)
S25F Q27Y S33D K36Q W56S T59Q S62Q | 0.09 / 0.22 / 0.47 / 0.44 / 0.42 / 0.60 | 0 of 18
S25M V29N L30D S33E K36D S38A W56N T59Q S62E | 0.17 / 0.36 / 0.14 / -0.24 / 0.04 / 0.17 | 0 of 18
S25F S28G V29F S33E W56H T59Q | -0.17 / -0.32 / -0.44 / -0.40 / -0.28 / -0.09 | 0 of 18
S25L S26E V29W L30W Y31G S33W W56H S62Q Q96D | 0.32 / 0.28 / 0.16 / 0.17 / -0.10 / 0.10 | 2 of 18 (2.90)
S25L V29M L30E N37A W56H | 0.72 / 0.45 / 0.52 / 0.27 / 0.21 / 0.24 | 0 of 18
S25V Q27M V29W K36W W56N T59L | 0.39 / 0.43 / 0.33 / 0.25 / 0.03 / 0.43 | 0 of 18
S25L S26V Q27M V29E W56G T59Q | -0.32 / -0.43 / -0.15 / -0.35 / -0.30 / -0.27 | 0 of 18
K24G S25L L30E Y31Q E32L S33E W56H T59Q S62V | -0.09 / -0.01 / -0.23 / -0.37 / -0.11 / 0.01 | 2 of 18 (2.59)
S25V S26E Q27G S28G L30M Y31M E32G W56H T59V S62Q | 0.36 / 0.55 / 0.71 / 0.42 / 0.33 / 0.68 | 2 of 18 (2.99)
S25L S26M Q27G N35M S38A W56G T59Q | -0.06 / -0.37 / -0.39 / -0.37 / -0.56 / -0.33 | 1 of 18 (2.12)
S25T S26E Q27V V29Q L30D K36Q W56N T59Q | 0.08 / 0.04 / 0.10 / -0.18 / -0.07 / 0.01 | 1 of 18 (2.96)
S25V V29M S33Q W56S S62N Q96S | -0.04 / -0.16 / -0.45 / 0.01 / 0.13 / -0.30 | 0 of 18
S25L S26P Q27N V29S S38Q W56S | 0.02 / -0.11 / -0.04 / -0.17 / -0.22 / -0.02 | 1 of 18 (2.69)
S25L S28E V29M L30E W56H T59E Q96D | -0.06 / -0.28 / -0.06 / -0.46 / -0.21 / -0.12 | 0 of 18
S25L Q27P V29E N35Q W56N T59L | -0.07 / -0.52 / -0.22 / -0.08 / -0.29 / 0.03 | 0 of 18
S25Q S26Q V29M K36S W56N S62E S103M | -0.07 / -0.10 / -0.30 / -0.50 / -0.36 / -0.40 | 0 of 18
S25I Q27G L30M Y31M E32L S33Q W56D S58N | -0.25 / -0.29 / -0.23 / -0.31 / -0.41 / -0.10 | 0 of 18
S25H S26E Q27E S28G V29W W56E A57G | -0.03 / -0.04 / -0.28 / -0.13 / -0.33 / 0.03 | 1 of 18 (2.69)
K24H S25L S26E V29E N35M W56N E61L | -0.14 / -0.13 / -0.27 / -0.39 / -0.15 / -0.21 | 0 of 18
S25Q S26D Q27F V29E L30P Y31G W56D E61M | 0.06 / -0.16 / -0.17 / -0.03 / -0.13 / 0.04 | 0 of 18
L30G Y31M K36S W56D | 0.37 / 0.57 / -0.13 / 0.31 / 0.73 / 0.24 | 0 of 18
S25M S26E Q27W V29D Y31L K36V N37Q W56Q | 0.48 / 0.52 / 0.34 / 0.51 / 0.57 / 0.40 | 1 of 18 (2.45)
S25L Q27A V29E R34A N35A W56N S58M T59Q E61M | -0.04 / -0.10 / -0.28 / -0.34 / -0.25 / -0.18 | 2 of 18 (3.32)
S25L S26M Q27G V29M S33Q N35M W56Q T59V E61M | 0.36 / 0.10 / 0.56 / 0.27 / 0.44 / 0.67 | 0 of 18

The last 6 entries again:

changes | log10 Kd, replicates | control signals
K24H S25L S26E V29E N35M W56N E61L | -0.14 / -0.13 / -0.27 / -0.39 / -0.15 / -0.21 | 0 of 18
S25Q S26D Q27F V29E L30P Y31G W56D E61M | 0.06 / -0.16 / -0.17 / -0.03 / -0.13 / 0.04 | 0 of 18
L30G Y31M K36S W56D | 0.37 / 0.57 / -0.13 / 0.31 / 0.73 / 0.24 | 0 of 18
S25M S26E Q27W V29D Y31L K36V N37Q W56Q | 0.48 / 0.52 / 0.34 / 0.51 / 0.57 / 0.40 | 1 of 18 (2.45)
S25L Q27A V29E R34A N35A W56N S58M T59Q E61M | -0.04 / -0.10 / -0.28 / -0.34 / -0.25 / -0.18 | 2 of 18 (3.32)
S25L S26M Q27G V29M S33Q N35M W56Q T59V E61M | 0.36 / 0.10 / 0.56 / 0.27 / 0.44 / 0.67 | 0 of 18

A sequence measured in both rounds can read differently, since the two assays cover different ranges.
Empty control strains, which show no peptide, gave a signal in 4% of pairings with all light chain designs; the median was 2.64 and 95% of these signals were weaker than 1.59. No background was subtracted. Also given: how often the same scFv was detected with the empty control strains, with their mean in brackets.
The parent sequence was in this pool as ten entries: three were never detected, three once, and four in most replicates, with averages from 0.34 to 2.37.
In the paper, a design with two or fewer of six values counts as a poor binder.

Reference: Li et al. 2023, doi:10.1038/s41467-023-39022-2. File: FLAb, binding data.